Data taken from patent US20110171291A1, “PATHOLOGICALLY-ACTIVATED THERAPEUTICS” (Sanford-Burnham Medical Research Institute, priority 2010, published 2011).
pKi: −log10 of the molar value.

Target: T1, NMDAR-coupled ion channel (Rattus norvegicus, UniProt P35439)
T1 construct: whole-cell recording of an NMDA-evoked current from a solitary neuron obtained with a patch electrode; endogenous in cells; host or cells: solitary neuron
Experiment: Whole-cell patch-electrode recording of NMDA-evoked current: kinetics of memantine open-channel block
Format: cell-based

`CC12CC3CC(C)(C1)CC(N)(C3)C2` [memantine] was tested, and the pKi was roughly 6.00.
